Where a name gives a salt, the structure may show the parent alone. Read-outs that look alike come from different tables or passages of the source.
What was measured:
SARS‐CoV‐2 Nsp15 [1] = target: T1, SARS‐CoV‐2 Nsp15 (Severe acute respiratory syndrome coronavirus 2, UniProt P0DTD1); test: biochemical; conditions: read-out: Inhibition % +L-Cys 10 µM
SARS‐CoV‐2 Nsp15 [2] = target: T1, SARS‐CoV‐2 Nsp15; test: biochemical
[3] = read-out: HC inhibition % +DTT 10 µM
[4] = read-out: PS Inhibition % 10 µM
[5] = read-out: PS inhibition % 10 μM (single point measurement)

| Structure (SMILES) | inhibition at 10 µM (SARS‐CoV‐2 Nsp15 [1]) [%] | inhibition at 10 µM (SARS‐CoV‐2 Nsp15 [2]; [3]) [%] | inhibition at 10 µM (SARS‐CoV‐2 Nsp15 [2]; [4]) [%] | inhibition at 10 µM (SARS‐CoV‐2 Nsp15 [2]; [5]) [%] |
| --- | --- | --- | --- | --- |
| COc1cccc2c1C(=O)c1c(O)c3c(c(O)c1C2=O)C[C@@](O)(C(=O)CO)C[C@@H]3O[C@H]1C[C@H](N)[C@H](O)[C@H](C)O1 [Doxorubicin] | 74.5 | 65.8 | 80.2 | 80.2 |
| COc1cccc2c1C(=O)c1c(O)c3c(c(O)c1C2=O)C[C@@](O)(C(=O)CO)C[C@@H]3O[C@H]1C[C@H](N)[C@@H](O)[C@H](C)O1 [Epirubicin hydrochloride] | 81.7 | 73.2 | 70.9 | 70.9 |

Reference: PMC12079475, “Identification, validation, and characterization of approved and investigational drugs interfering with the SARS‐CoV‐2 endoribonuclease Nsp15” (Protein Science : A Publication of the Protein Society, 2025)
